Literature values, collected in paper PMC7482398 (Molecular Pharmaceutics, 2020).

System: P-gp
Details: NHP, tariquidar infusion 2 h at 4 mg/kg/h; cited from earlier work

In the case of `CCN(CC)CCNC(=O)c1cc(Cl)c(N)cc1O[11CH3]` [[^11C]metoclopramide], the “increase of VT compared to baseline” value is given as 2.2 fold.
